The results in this text go back to PMC12737281, “In Situ Evaluation of the GSH Depletion Ability of Various Alkylating Agents and the Protective Effect of Several Active Thiol Compounds Based on High-Content Cell Analysis” (2025).

Molecules are shown by their SMILES.

In the test the test system is intracellular GSH in HaCaT cells. Conditions: HaCaT cells co-incubated with 10 μM NEM for 24 h.

Turning to `CCN1C(=O)C=CC1=O`, the “change of mBCL fluorescence intensity (intracellular GSH)” value was “significant decrease in fluorescence intensity”.
